## scFv variants of Ab-14 (heavy chain) against a SARS-CoV-2 spike peptide

Reference: Engelhart et al. 2022, doi:10.1038/s41597-022-01779-4. File: FLAb, binding data.

The target is the same throughout: PDVDLGDISGINAS, from the HR2 region of SARS-CoV-2 spike.

The variants keep the light chain, the linker and the frameworks of Ab-14 (scFv order VH, three GGGGS repeats, VL).
VH: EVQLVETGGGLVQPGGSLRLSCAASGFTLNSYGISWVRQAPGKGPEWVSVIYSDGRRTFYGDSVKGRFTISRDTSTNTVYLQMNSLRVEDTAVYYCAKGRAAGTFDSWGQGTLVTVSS
VL: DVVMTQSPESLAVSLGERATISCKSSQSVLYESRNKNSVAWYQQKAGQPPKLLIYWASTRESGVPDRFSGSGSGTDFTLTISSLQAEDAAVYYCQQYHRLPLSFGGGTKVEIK

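Phage display of a naive human antibody library on the peptide gave the parent. The library (AAYL49) carries one to three amino acid substitutions per variant, with no insertions or deletions. The scFvs were displayed on barcoded MATa yeast, the peptide on MATalpha yeast. The frequency of each diploid, read from paired DNA barcodes, reflects how well the two displayed proteins bind. Scores were corrected for input abundance and mapped to Kd with protein pairs of known affinity run in the same pool. There are three technical replicates.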

Each variant is given by its three heavy chain CDRs, as the data file delimits them; those of the parent are GFTLNSYGIS, VIYSDGRRTFYGDSVK, GRAAGTFDS. Numbers give log10(Kd / nM), so 0 is 1 nM and 3 is 1 µM. Smaller is tighter. The mean shown is taken over the replicates in which the pair was detected. Where no diploid with the target was found in that replicate, the entry reads "nd": below detection, most likely a poor binder, though not proof of it. Empty control strains, which show no peptide, gave a signal in 15% of pairings with library AAYL49; the median was 4.06 and 95% of these signals were weaker than 2.83. No background was subtracted. The control count says in how many pairings with the empty strains this scFv gave a signal, with their mean in brackets.

{"CDR-H1": "GFTLNPYGIS", "CDR-H2": "VIYSDGRRTKPGDSVK", "CDR-H3": "GRAAGTFDS", "log10 Kd (nM) by replicate": "nd nd nd", "log10 Kd (nM), mean": "nd", "control signals": "1/9 (3.41)"}
{"CDR-H1": "GFTLNSYGIS", "CDR-H2": "VIYSDGRRTFYGDSVK", "CDR-H3": "WRAAGTFDS", "log10 Kd (nM) by replicate": "1.65 1.44 1.69", "log10 Kd (nM), mean": "1.59", "control signals": "1/9 (2.65)"}
{"CDR-H1": "GVTLNSYFIS", "CDR-H2": "IIYSDGRRTFYGDSVK", "CDR-H3": "GRAAGTFDS", "log10 Kd (nM) by replicate": "nd nd nd", "log10 Kd (nM), mean": "nd", "control signals": "0/9"}
{"CDR-H1": "GFTLNSYGIY", "CDR-H2": "VIYSDGRVTFYGDSVK", "CDR-H3": "GRAAGFFDS", "log10 Kd (nM) by replicate": "nd 4.79 nd", "log10 Kd (nM), mean": "4.79", "control signals": "0/9"}
{"CDR-H1": "GFTLNSYGIS", "CDR-H2": "VIYIDGDRTFYGDSVK", "CDR-H3": "GRAAGTFDS", "log10 Kd (nM) by replicate": "nd 4.22 nd", "log10 Kd (nM), mean": "4.22", "control signals": "0/9"}
{"CDR-H1": "GFTLNSYGIS", "CDR-H2": "VIYSTGQRTFYGDSVK", "CDR-H3": "GRIAGTFDS", "log10 Kd (nM) by replicate": "nd 2.09 nd", "log10 Kd (nM), mean": "2.09", "control signals": "1/9 (3.27)"}
{"CDR-H1": "GFTLNSYGIS", "CDR-H2": "VIVSDGRRTFYGDSVK", "CDR-H3": "GTAAGTFDS", "log10 Kd (nM) by replicate": "nd 4.22 4.07", "log10 Kd (nM), mean": "4.14", "control signals": "3/9 (3.78)"}
{"CDR-H1": "GFTLNSYGIS", "CDR-H2": "VLYSDGRYTFYGDSVK", "CDR-H3": "RRAAGTFDS", "log10 Kd (nM) by replicate": "nd nd nd", "log10 Kd (nM), mean": "nd", "control signals": "0/9"}
{"CDR-H1": "HFTLNSYGIS", "CDR-H2": "VIYSDGRITFYGDSVK", "CDR-H3": "GRAAGLFDS", "log10 Kd (nM) by replicate": "4.38 nd 3.36", "log10 Kd (nM), mean": "3.87", "control signals": "3/9 (4.72)"}
{"CDR-H1": "GITLNSYGIS", "CDR-H2": "VIYSDGRRTFYGDSVK", "CDR-H3": "GAAAHTFDS", "log10 Kd (nM) by replicate": "nd 3.03 nd", "log10 Kd (nM), mean": "3.03", "control signals": "1/9 (4.03)"}
{"CDR-H1": "GFTLNSYGIS", "CDR-H2": "VIYSDGVRTFYGMSVK", "CDR-H3": "GRAAGTFDN", "log10 Kd (nM) by replicate": "4.42 nd 4.09", "log10 Kd (nM), mean": "4.25", "control signals": "2/9 (5.39)"}
{"CDR-H1": "GFTENSYGIS", "CDR-H2": "VIYSDGRRTFYGDSVK", "CDR-H3": "GRARNTFDS", "log10 Kd (nM) by replicate": "nd 3.46 nd", "log10 Kd (nM), mean": "3.46", "control signals": "0/9"}
{"CDR-H1": "GFTLNSYDIS", "CDR-H2": "VVYSDGRRTFYGDSVK", "CDR-H3": "GRVAGTFDS", "log10 Kd (nM) by replicate": "2.75 nd nd", "log10 Kd (nM), mean": "2.75", "control signals": "0/9"}
{"CDR-H1": "GFTLNSYGIS", "CDR-H2": "VIYSDGRRVFYGDSVM", "CDR-H3": "GRAAGTNDS", "log10 Kd (nM) by replicate": "nd nd nd", "log10 Kd (nM), mean": "nd", "control signals": "0/9"}
{"CDR-H1": "GFTLNSYGIS", "CDR-H2": "VIYSDGRRTFYGMISK", "CDR-H3": "GRAAGTFDS", "log10 Kd (nM) by replicate": "5.20 nd nd", "log10 Kd (nM), mean": "5.20", "control signals": "0/9"}
{"CDR-H1": "GFTLNSYGIS", "CDR-H2": "VIYSDGRRTFYGDSYK", "CDR-H3": "GEAAVTFDS", "log10 Kd (nM) by replicate": "nd nd nd", "log10 Kd (nM), mean": "nd", "control signals": "0/9"}
{"CDR-H1": "GFTLNSYGIS", "CDR-H2": "VTYSDGRRTFYGDSVK", "CDR-H3": "GAAAGTFDS", "log10 Kd (nM) by replicate": "nd nd nd", "log10 Kd (nM), mean": "nd", "control signals": "0/9"}
{"CDR-H1": "GFTWNSYYIS", "CDR-H2": "VIYVDGRRTFYGDSVK", "CDR-H3": "GRAAGTFDS", "log10 Kd (nM) by replicate": "3.46 nd nd", "log10 Kd (nM), mean": "3.46", "control signals": "2/9 (4.32)"}
{"CDR-H1": "GFQLNSYGIS", "CDR-H2": "VIYSDGRRDFYGDSVK", "CDR-H3": "GRAAGTEDS", "log10 Kd (nM) by replicate": "nd nd nd", "log10 Kd (nM), mean": "nd", "control signals": "0/9"}
{"CDR-H1": "GFTLNSYGIS", "CDR-H2": "VIYSDGRRTFYGDKVA", "CDR-H3": "GRAAGTFYS", "log10 Kd (nM) by replicate": "2.46 2.71 3.23", "log10 Kd (nM), mean": "2.80", "control signals": "5/9 (2.98)"}
{"CDR-H1": "GFTLNSYGIS", "CDR-H2": "VPDSDNRRTFYGDSVK", "CDR-H3": "GRAAGTFDS", "log10 Kd (nM) by replicate": "3.21 nd nd", "log10 Kd (nM), mean": "3.21", "control signals": "0/9"}
{"CDR-H1": "GFPLNSYGIS", "CDR-H2": "VIYSDGRRTFYGDSVK", "CDR-H3": "GRAANTFPS", "log10 Kd (nM) by replicate": "0.56 0.70 0.85", "log10 Kd (nM), mean": "0.71", "control signals": "4/9 (4.15)"}
{"CDR-H1": "GFSLNSYGIS", "CDR-H2": "VIVSDGRRTFYGDSVK", "CDR-H3": "GRAAGTFMS", "log10 Kd (nM) by replicate": "nd nd nd", "log10 Kd (nM), mean": "nd", "control signals": "0/9"}
{"CDR-H1": "GFTLTSYGIS", "CDR-H2": "VQYSDGRRTEYGDSVK", "CDR-H3": "GRAAGTFDS", "log10 Kd (nM) by replicate": "nd nd nd", "log10 Kd (nM), mean": "nd", "control signals": "0/9"}
{"CDR-H1": "GFTLNSYGIS", "CDR-H2": "VIYSDGRRTFCGDSVK", "CDR-H3": "GRAAGTFDS", "log10 Kd (nM) by replicate": "3.09 2.52 2.78", "log10 Kd (nM), mean": "2.80", "control signals": "2/9 (3.16)"}
{"CDR-H1": "GFTLNSYGIS", "CDR-H2": "VIYSDGRRTFYGDSVK", "CDR-H3": "GRAAGTFLS", "log10 Kd (nM) by replicate": "5.63 nd nd", "log10 Kd (nM), mean": "5.63", "control signals": "2/9 (4.37)"}

The 2 strongest on average among those seen in every replicate, once more:

{"CDR-H1": "GFPLNSYGIS", "CDR-H2": "VIYSDGRRTFYGDSVK", "CDR-H3": "GRAANTFPS", "log10 Kd (nM) by replicate": "0.56 0.70 0.85", "log10 Kd (nM), mean": "0.71", "control signals": "4/9 (4.15)"}
{"CDR-H1": "GFTLNSYGIS", "CDR-H2": "VIYSDGRRTFYGDSVK", "CDR-H3": "WRAAGTFDS", "log10 Kd (nM) by replicate": "1.65 1.44 1.69", "log10 Kd (nM), mean": "1.59", "control signals": "1/9 (2.65)"}